Reference: US11970436B2, “Pharmaceutical compositions comprising monoterpenes” (NEONC Technologies, Inc., priority 2010, dated 2024)

System: U87 human malignant glioma cells
Conditions: MTT; purity increase about 2.6%

**Q.** For `C=C(C)[C@@H]1CC=C(CO)CC1` [purified POH, (S)-perillyl alcohol], which “increase of cytotoxic property compared to Sigma (S)-perillyl alcohol” value is on record?
**A.** about 125%
